Literature values, collected in patent US20250325636A1, “USE OF ENDOTHELIN RECEPTOR TYPE B AGONISTS FOR THE TREATMENT OF AORTIC VALVE STENOSIS” (INSTITUT NATIONAL DE LA SANTÉ ET DE LA RECHERCHE MÉDICALE, priority 2022, published 2025).

The chains behind the UniProt entries cited, without tags or fusion partners. Residues count along the entry.
UniProt P25101, 21-427: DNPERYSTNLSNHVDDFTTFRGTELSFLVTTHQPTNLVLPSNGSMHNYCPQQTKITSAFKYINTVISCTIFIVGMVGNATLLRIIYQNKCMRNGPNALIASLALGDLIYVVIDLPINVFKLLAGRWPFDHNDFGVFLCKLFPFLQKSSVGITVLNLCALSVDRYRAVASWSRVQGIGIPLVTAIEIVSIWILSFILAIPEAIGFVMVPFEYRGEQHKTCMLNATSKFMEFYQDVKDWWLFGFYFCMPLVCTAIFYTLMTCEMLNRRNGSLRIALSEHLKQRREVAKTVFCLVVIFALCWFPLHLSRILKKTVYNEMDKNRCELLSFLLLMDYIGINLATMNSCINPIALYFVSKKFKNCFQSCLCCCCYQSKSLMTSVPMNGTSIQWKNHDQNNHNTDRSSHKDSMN

Biological target: ETA (Homo sapiens, UniProt P25101)
Conditions: ET-1 and ET-2 equipotent; cited from earlier work

Substance: Endothelin 3 [ET-3]
- lower potency at the ETA subtype compared with ET-1 and ET-2: at least 100 fold
